Only a part is listed here, and it is no random draw. Activity calls are given as the source filed them.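 The calls were made as follows: active = inhibition above the primary screen's cutoff, its mean inhibition plus 3 SD (cut at about 35% in these data); inactive = the rest.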
Molecular target: Glutathione S-transferase omega-1 (Homo sapiens) (UniProt P78417)
Assay: recombinant GSTO1 blockers, retest – biochemical, fluorescence polarization, triplicate, counter-screen for RBBP9 inhibitor project, confirmation (AID 2176);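 also: loss of polarization as inhibitors block binding of rhodamine sulfonate ester activity probe; 0% = GSTO1 with DMSO and 100% = wells lacking GSTO1 enzyme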
Details: recombinant GSTO1, probe fluorescence polarization; at 5.96 µM; stronger effect = higher value

Protein sequences, listed by entry. Tags and fused reporters are not part of them. Lines headed by an entry give the natural chain unless they say otherwise; changes in a name come on top.
UniProt P78417: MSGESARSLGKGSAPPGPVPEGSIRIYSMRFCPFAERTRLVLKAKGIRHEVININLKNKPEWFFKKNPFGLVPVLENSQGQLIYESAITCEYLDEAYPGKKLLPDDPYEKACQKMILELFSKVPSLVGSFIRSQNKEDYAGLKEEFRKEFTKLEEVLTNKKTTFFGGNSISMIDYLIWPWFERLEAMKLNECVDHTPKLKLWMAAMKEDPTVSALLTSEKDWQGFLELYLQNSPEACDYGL

Q: How did the inhibition turn out when `C[N+]1=C2C=CC=CC=C2SC12C([N+](=O)[O-])=CC([N+](=O)[O-])=C[C-]2[N+](=O)[O-]` (stereo not drawn) was run?
A: Its inhibition is active: 40.4%.

Q: Which inhibition does the source give for `Nc1cccc2c([As](=O)(O)O)cccc12` here?
A: The inhibition was inactive: 31.9%.

Q: `CN(C)C(=O)c1cc([N+](=O)[O-])cc2c1-c1c(cc([N+](=O)[O-])cc1[N+](=O)[O-])C2=O` was tested. Which inhibition did it give?
A: Its inhibition is inactive: 20.4%.

From PubChem BioAssay AID2176 (The Scripps Research Institute Molecular Screening Center, 2009)
